Literature values in patent US7820706B2, “Multiple dose aromatase inhibitor for treating infertility” (Ares Trading S.A., priority 2001, dated 2010).

Conditions: oral compared with same dose intravenously; cited from earlier work

In the case of `N#Cc1ccc(C(c2ccc(C#N)cc2)n2cncn2)cc1` [letrozole], the absolute systemic bioavailability is given as 100%.
